Test [1] has as its target arginine vasopressin receptor 1A (AVPR1A) (human (endogenous in THP-1 and human monocytes)) (UniProt P37288).
For test [2] the target is unchanged. This is another data set of the same source.

Protein sequences, listed by entry. Tags and fused reporters are not part of them.
UniProt P37288, whole entry: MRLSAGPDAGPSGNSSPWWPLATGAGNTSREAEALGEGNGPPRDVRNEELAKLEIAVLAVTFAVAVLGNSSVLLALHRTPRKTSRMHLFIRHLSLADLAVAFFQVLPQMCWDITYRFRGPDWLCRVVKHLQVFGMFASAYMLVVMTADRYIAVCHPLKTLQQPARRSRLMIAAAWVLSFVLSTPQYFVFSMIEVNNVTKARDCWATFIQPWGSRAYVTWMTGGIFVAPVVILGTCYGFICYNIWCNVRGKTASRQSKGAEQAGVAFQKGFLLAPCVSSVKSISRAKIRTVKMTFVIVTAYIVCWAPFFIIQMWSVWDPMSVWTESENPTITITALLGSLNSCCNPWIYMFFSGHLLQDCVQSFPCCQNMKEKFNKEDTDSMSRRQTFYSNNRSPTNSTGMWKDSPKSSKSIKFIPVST

arginine vasopressin (aVP) (peptide): in test [1], the EC50 of aVP to enhance CCL23-induced (0.1 nmol/liter) chemotaxis of human monocytes was 7 nM, the IC50 of aVP for inhibition of CCL2-induced (10 nmol/liter) chemotaxis of freshly isolated human monocytes is 1 nM, the enhancement by aVP (various concentrations) of CCL23-induced chemotaxis of human monocytes worked out at 275% and the inhibition by aVP (various concentrations) of CCL2-induced chemotaxis of human monocytes was 74%. Also, in test [2], the EC50 of aVP to enhance CCR1-mediated (CCL23-induced) chemotaxis of THP-1 cells; heteromer concerned: AVPR1A:CCR1 is 17 nM; the IC50 of aVP for inhibition of chemotaxis of THP-1 cells toward CXCL12 (100 nmol/liter; CXCR4-mediated), transwell migration; heteromer concerned: AVPR1A:CXCR4 was 0.25 nM; the efficacy of aVP (various concentrations) to inhibit chemotaxis of THP-1 cells toward CCL2 (10 nmol/liter) was greater than 60%; the efficacy of aVP (various concentrations) to inhibit chemotaxis of THP-1 cells toward CXCL12 (100 nmol/liter) was greater than 60%. Moreover, the enhancement by aVP (various concentrations) of chemotaxis of THP-1 cells toward CCL23 (0.1 nmol/liter; CCR1-mediated), chemotactic index in percent of cells not exposed to aVP in test [2] worked out at 278%.

The values are drawn from article PMC11116815.
